Assay results from paper PMC10307035, “Antiviral activity of singlet oxygen-photogenerating perylene compounds against SARS-CoV-2: Interaction with the viral envelope and photodynamic virion inactivation” (Virus Research, 2023).

System: CaCo-2 cells
Experiment: Cellular stress marker expression by RT-qPCR in CaCo-2 cells
Assay type: cell-based, human
Details: CaCo-2 cells, 5, 24 and 48 h
Protocol: RT-qPCR was performed to evaluate changes in the gene expression of cellular stress markers. […] The cells were simultaneously treated with 2 mM KBrO3 (Penta, Czech Republic), 100 nM THA (thapsigargin; Sigma-Aldrich, Missouri, USA), and 10 nM TCDD (Cambridge Isotope Laboratories, Massachusetts, USA) as model cellular stress inducers. Previous publications report the primer sequences and numbers of the Universal Probe Library (UPL; Roche Life Sciences, Germany) used for detection of ATF3, CDKN1A (p21), CYP1A1, DDIT3, HMOX1, HSPA1B (HSP70), and HSPA5 mRNAs ([Procházková et al., 2018]; [Šimečková et al., 2020]). The TXNRD1 mRNA (NM_003330.2) level was detected using the forward primer, […]; reverse primer, […]; and UPL probe #81. TaqMan™ Gene Expression Assays (Thermo Fisher Scientific, Waltham, MA, USA) were used to determine the levels of FGF21 (Hs00173927_m1), GADD45A (Hs00169255_m1), GDF15 (Hs00171132_m1), and SRXN1 (Hs00607800_m1). The amplification was run in a 10-µL reaction mixture containing 1 µL of sample, using Kapa Probe Fast One-Step (Kapa Biosystems Pty, Cape Town, South Africa) on a LightCycler® 480 System (Roche Diagnostics, Czech Republic) using the previously published sequence ([Procházková et al., 2018]). […]

[K+].[O-][Br+2]([O-])[O-] [KBrO3, reference compound]
expression of HMOX1, SRXN1, TXNRD1 (oxidative stress): highly stimulating effect
expression of HSPA5, DDIT3, HSPA1B (HSP70), CDKN1A (p21), GADD45A: increased
